Biological target: Carbonic anhydrase 2 (Homo sapiens, UniProt P00918)
Test: Inhibition of human carbonic anhydrase 2 esterase activity by spectrophotometry
Settings: read-out: I50
Outline: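 Enzyme purified from human erythrocytes. Esterase activity is followed as 4-nitrophenylacetate conversion to 4-nitrophenylate by absorbance at 348 nm over 3 min at 25 °C, in Tris–SO4 buffer pH 7.4. A reference cuvette lacks enzyme. Each inhibitor concentration is run in triplicate, with uninhibited control activity set to 100%. IC50 is read from %activity vs [inhibitor] plots.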

O=[N+]([O-])O[C@H]1C[C@H](O[N+](=O)[O-])[C@@H](O)C[C@@H]1O
IC50: 86.3 µM

Source: ChEMBL document CHEMBL1157807, “NO-releasing esters show carbonic anhydrase inhibitory action against human isoforms I and II” (Bioorg Med Chem, 2010)
